Results: ChEMBL document CHEMBL1131583, “Structure-based design and synthesis of lipophilic 2,4-diamino-6-substituted quinazolines and their evaluation as inhibitors of dihydrofolate reductases and potential antitumor agents” (J Med Chem, 1998)

Columns and labels:
[1] = molecular target: T1, Bifunctional dihydrofolate reductase-thymidylate synthase (Toxoplasma gondii, UniProt Q07422)
T1 sequence (Q07422 whole entry): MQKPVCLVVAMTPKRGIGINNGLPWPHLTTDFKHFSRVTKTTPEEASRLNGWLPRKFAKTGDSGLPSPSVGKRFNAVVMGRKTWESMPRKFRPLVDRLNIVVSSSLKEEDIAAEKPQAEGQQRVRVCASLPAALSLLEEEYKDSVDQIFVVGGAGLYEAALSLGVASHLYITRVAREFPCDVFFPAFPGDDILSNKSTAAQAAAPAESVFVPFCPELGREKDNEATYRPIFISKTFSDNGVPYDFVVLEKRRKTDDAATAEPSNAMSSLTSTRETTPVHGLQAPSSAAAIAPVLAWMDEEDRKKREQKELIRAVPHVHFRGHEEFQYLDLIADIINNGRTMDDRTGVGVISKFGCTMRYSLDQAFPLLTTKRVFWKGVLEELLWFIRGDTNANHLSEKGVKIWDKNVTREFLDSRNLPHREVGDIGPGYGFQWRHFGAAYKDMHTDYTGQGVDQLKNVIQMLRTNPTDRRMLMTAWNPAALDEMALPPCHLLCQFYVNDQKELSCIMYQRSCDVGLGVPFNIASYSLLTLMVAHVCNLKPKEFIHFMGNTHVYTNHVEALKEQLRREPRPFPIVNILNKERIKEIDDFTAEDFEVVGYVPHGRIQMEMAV

[2] = molecular target: T1, Bifunctional dihydrofolate reductase-thymidylate synthase; experiment: Inhibition of recombinant Dihydrofolate reductase from Toxoplasma gondii (tgDHFR)
Dihydrofolate reductase = molecular target: T2, Dihydrofolate reductase (Rattus norvegicus, UniProt Q920D2); experiment: Inhibitory activity against Dihydrofolate reductase from rat liver (rlDHFR)
T2 sequence (Q920D2 whole entry): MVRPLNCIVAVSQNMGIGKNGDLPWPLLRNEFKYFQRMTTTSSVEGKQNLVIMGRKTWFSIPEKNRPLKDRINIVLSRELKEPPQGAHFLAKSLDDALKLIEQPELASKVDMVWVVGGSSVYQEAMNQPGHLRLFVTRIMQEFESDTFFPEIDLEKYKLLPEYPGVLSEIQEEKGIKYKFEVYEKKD

| IC50 (Dihydrofolate reductase) | SMILES | IC50 [1] | IC50 [2] |
| --- | --- | --- | --- |
|  | COc1cc(OC)c(CNc2ccc3nc(N)nc(N)c3c2)c(OC)c1 | 0.95 µM | 0.75 µM |
| 0.026 µM | COc1ccc(OC)c(CN(C)c2ccc3nc(N)nc(N)c3c2)c1 |  |  |
